# Inconclusive results and toxic doses are left out.
# Tested on: CD2F1 mice, L1210 leukemia sc, survival T/C
# Assay: NCI In Vivo Anticancer Drug Screen. Data for tumor model L1210 Leukemia (subcutaneous) in CD2F1 (CDF1) mice
# Conditions: endpoint: median survival time, higher = longer survival
# Protocol: The antitumor activity of compounds was measured in mice bearing transplantable tumors. Survival or tumor size were measured and the results are expressed as the measurement made in the treated group (T) divided by the measurement made in the vehicle treated control group (C). The tumor model used in this assay is L1210 Leukemia (subcutaneous) in CD2F1 (CDF1) mice
structure (smiles),measurement,setting,value
CN(Cc1cnc2nc(N)nc(N)c2n1)c1ccc(C(=O)N[C@@H](CCC(=O)O)C(=O)O)cc1,T/C,"dose: 0.25 mg/kg/injection, schedule: Q01DX009 (ip), vehicle: sodium bicarbonate",106 % of control
same,T/C,"dose: 0.5 mg/kg/injection, schedule: Q01DX Z (sc), vehicle: sodium bicarbonate",216 % of control
same,T/C,"dose: 0.84 mg/kg/injection, schedule: Q01DX Z (sc), vehicle: sodium bicarbonate",211 % of control
same,T/C,"dose: 1.08 mg/kg/injection, schedule: Q01DX009 (sc), vehicle: other",172 % of control
same,T/C,"dose: 1.08 mg/kg/injection, schedule: Q01DX009 (sc), vehicle: sodium bicarbonate",172 % of control
same,T/C,"dose: 1.8 mg/kg/injection, schedule: Q02DX Z (sc), vehicle: other",211 % of control
same,T/C,"dose: 1.95 mg/kg/injection, schedule: Q01DX Z (sc), vehicle: other",162 % of control
same,T/C,"dose: 2.16 mg/kg/injection, schedule: Q01DX Z (oral), vehicle: other",216 % of control
same,T/C,"dose: 3.0 mg/kg/injection, schedule: Q02DX Z (sc), vehicle: other",211 % of control
same,T/C,"dose: 3.6 mg/kg/injection, schedule: Q01DX Z (oral), vehicle: other",211 % of control
same,T/C,"dose: 3.61 mg/kg/injection, schedule: Q01DX Z (oral), vehicle: other",172 % of control
same,T/C,"dose: 5.83 mg/kg/injection, schedule: Q01DX Z (oral), vehicle: other",172 % of control
same,T/C,"dose: 6.0 mg/kg/injection, schedule: Q01DX Z (oral), vehicle: other",172 % of control
same,T/C,"dose: 300.0 mg/kg/injection, schedule: Q01DX009 (ip), vehicle: sodium bicarbonate",151 % of control

# Reference: PubChem BioAssay AID258 (DTP/NCI, 2004)
